Biological target: human cannabinoid receptor CB1 (Homo sapiens, UniProt P21554)
Assay: GloSensor cAMP assay, CB1-transfected HEK293 cells
Type: cell-based

Chains of the proteins cited; added tags and fusions are not shown.
UniProt P21554, whole entry: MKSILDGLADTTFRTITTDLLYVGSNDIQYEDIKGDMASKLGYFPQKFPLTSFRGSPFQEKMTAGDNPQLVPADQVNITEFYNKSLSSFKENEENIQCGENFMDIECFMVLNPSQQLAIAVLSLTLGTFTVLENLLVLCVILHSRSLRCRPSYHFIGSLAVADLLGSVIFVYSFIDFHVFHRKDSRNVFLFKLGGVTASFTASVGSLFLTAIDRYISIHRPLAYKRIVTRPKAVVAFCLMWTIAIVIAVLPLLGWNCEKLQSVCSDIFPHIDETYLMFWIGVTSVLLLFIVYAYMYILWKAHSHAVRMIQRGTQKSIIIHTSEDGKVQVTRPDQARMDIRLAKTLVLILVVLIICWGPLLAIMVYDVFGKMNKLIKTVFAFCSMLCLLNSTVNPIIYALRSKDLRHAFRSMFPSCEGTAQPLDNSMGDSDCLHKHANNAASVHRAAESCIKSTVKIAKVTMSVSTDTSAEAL

Q: For `Cc1c(C(=O)NN2CCCCC2)nn(-c2ccc(Cl)cc2Cl)c1-c1ccc(I)cc1` [AM251, N-(piperidin-1-yl)-5-(4-iodophenyl)-1-(2,4-dichlorophenyl)-4-methyl-1H-pyrazole-3-carboxamide, reference compound], which “mode of action at CB1” value is on record?
A: inverse agonist

— publication PMC3973694, “Identification of Odorant-Receptor Interactions by Global Mapping of the Human Odorome” (PLoS ONE, 2014)
